In assay [1] the target is T1, human ferroportin (SLC40A1) fused in frame with GFP, stably expressed in HEK293 cells (human, UniProt Q9NP59 1-571).
T1 sequence (looked up): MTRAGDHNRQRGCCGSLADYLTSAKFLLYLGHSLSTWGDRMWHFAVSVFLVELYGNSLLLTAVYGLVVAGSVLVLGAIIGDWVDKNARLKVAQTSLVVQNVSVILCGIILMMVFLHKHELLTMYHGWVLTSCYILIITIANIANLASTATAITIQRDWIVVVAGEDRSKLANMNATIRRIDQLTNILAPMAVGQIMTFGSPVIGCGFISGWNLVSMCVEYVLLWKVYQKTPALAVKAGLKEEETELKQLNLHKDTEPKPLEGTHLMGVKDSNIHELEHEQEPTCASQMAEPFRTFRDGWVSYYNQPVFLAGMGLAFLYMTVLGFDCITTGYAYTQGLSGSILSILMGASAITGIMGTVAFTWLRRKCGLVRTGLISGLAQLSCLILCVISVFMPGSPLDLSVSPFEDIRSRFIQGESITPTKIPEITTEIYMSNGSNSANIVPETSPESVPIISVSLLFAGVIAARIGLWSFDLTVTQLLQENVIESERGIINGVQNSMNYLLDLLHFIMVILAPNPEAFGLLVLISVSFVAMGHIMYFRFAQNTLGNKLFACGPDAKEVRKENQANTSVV
Put plainly: cell-based or functional assay.

The target in assay [2] is T2, human ferroportin (SLC40A1) fused in frame with GFP, stably expressed on HEK293 cells (human, UniProt Q9NP59 1-571).
T2 sequence (looked up): T1 sequence (looked up)
Put plainly: cell-based or functional assay.

B1: Compound 346 (peptide)
peptide: DTHFPCIKFK
modifications: N-terminal isovaleric acid; DIG linker through K10; C-terminal NH2
Regarding B1, the “EC50 (nM) (n > 3)” value in assay [1] worked out at 15 nM.

B2: Hepcidin (Hy-DTHFPIC(1)IFC(2)C(3)GC(2)C(4)HRSKC(3)GMC(4)C(1)KT-OH) (peptide)
peptide: DTHFPICIFCCGCCHRSKCGMCCKT
modifications: four disulfide bridges: C(1)-C(1), C(2)-C(2), C(3)-C(3), C(4)-C(4); free N-terminus (Hy-), C-terminal -OH
Regarding B2, in assay [2], the “EC50 (nM), ferroportin degradation (loss of ferroportin-GFP fluorescence)” value was found to be 169 nM.
